Assay results from paper PMC4059246 (Journal of Medicinal Chemistry, 2014).

Test system: RPA194

`CCN(CCN(C)C)C(=O)c1cccn2c(=O)c3cc4ccccc4cc3nc12` [Compound 19, N-[2-(Dimethylamino)ethyl]-N-ethyl-12-oxo-12H-benzo[g]pyrido[2,1-b]quinazoline-4-carboxamide] was tested, and the “Decrease in potency relative to compound 2” value was “either inactive or caused >400-fold decrease in potency”.
